Measured values taken from article PMC4575266 (Nature chemical biology, 2015).
Blank lines part the entries; values can stand above or below the compound they belong to.

Protein sequences, listed by entry. Tags and fused reporters are not part of them. Lines headed by an entry give the natural chain unless they say otherwise; changes in a name come on top. Residues count along the entry.
UniProt P35049, 25-248: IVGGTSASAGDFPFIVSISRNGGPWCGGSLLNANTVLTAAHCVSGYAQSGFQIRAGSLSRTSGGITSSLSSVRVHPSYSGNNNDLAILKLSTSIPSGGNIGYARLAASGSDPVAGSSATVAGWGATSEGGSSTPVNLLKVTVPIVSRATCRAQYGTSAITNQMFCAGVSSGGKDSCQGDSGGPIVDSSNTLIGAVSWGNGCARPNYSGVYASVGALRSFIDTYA
UniProt P30969: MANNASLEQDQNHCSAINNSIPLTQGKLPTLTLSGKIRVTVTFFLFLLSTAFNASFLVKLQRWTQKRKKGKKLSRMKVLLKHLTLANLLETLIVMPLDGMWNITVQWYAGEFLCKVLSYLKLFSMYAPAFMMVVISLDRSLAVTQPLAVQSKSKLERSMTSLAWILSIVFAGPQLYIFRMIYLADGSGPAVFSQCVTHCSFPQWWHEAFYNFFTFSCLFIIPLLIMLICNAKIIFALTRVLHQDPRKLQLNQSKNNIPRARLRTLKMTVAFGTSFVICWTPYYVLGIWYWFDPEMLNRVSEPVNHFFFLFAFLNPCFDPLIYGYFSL

Tests used:
Trypsin = Trypsin (Fusarium oxysporum, UniProt P35049); conditions: trypsin in buffer, hTTR 10 μM
GnRH-R [1] = molecular target: T1, GnRH-R (Rattus norvegicus, UniProt P30969); conditions: control ligand
[2] = cited from earlier work
[3] = rat
[4] = 5 μM, normal human serum
hTTR in human serum = hTTR in human serum (Homo sapiens, UniProt P02766); conditions: ligand 10 μM, estimated from covalent-probe fluorescence at 3 h
GnRH-R [5] = molecular target: T1, GnRH-R
hTTR [6] = molecular target: T2, hTTR (Homo sapiens, UniProt P02766); test: biochemical
hTTR [7] = molecular target: T2, hTTR
hTTR [8] = molecular target: T2, hTTR; conditions: 8 240 nM, GnRH-R 6, 12, 18 nM
[9] = male rats, single i.v. 120 picomoles/kg

protection against proteolysis in the presence of hTTR (Trypsin): no protection
Compound: Arg-Gly-Lys-MCA

effect of hTTR (1 μM) on measured binding affinity to GnRH-R (GnRH-R [1]): did not affect
Compound: [D-Trp^6]-GnRH

amount in plasma at 15 min after administration ([3]; i.v. bolus 3.3 μmole/kg): no measurable amount
% remaining in human serum at 2 h [4]: no detectable amounts
Compound: CC(C)C[C@H](NC(=O)CNC(=O)[C@H](Cc1ccc(O)cc1)NC(=O)[C@H](CO)NC(=O)[C@H](Cc1c[nH]c2ccccc12)NC(=O)[C@H](Cc1cnc[nH]1)NC(=O)[C@@H]1CCC(=O)N1)C(=O)N[C@@H](CCCNC(=N)N)C(=O)N1CCC[C@H]1C(=O)NCC(N)=O [GnRH, gonadotropin-releasing hormone]
in vivo t1/2 [2]: 2 to 6 min

% binding to hTTR in human serum (hTTR in human serum): 45%
Compound: O=C(O)c1ccc2nc(-c3cc(Cl)cc(Cl)c3)oc2c1 [Tafamidis, tafamidis]

serum testosterone at 1 h (GnRH-R [5]; [9]): 35.6 ± 3.2 ng/mL
serum testosterone at 6 h (GnRH-R [5]; [9]): 25.6 ± 2.8 ng/mL
serum testosterone at 8 h (GnRH-R [5]; [9]): 18.9 ± 1.0 ng/mL
serum testosterone at 12 h (GnRH-R [5]; [9]): 12.7 ± 2.3 ng/mL
increase of testosterone above basal levels at 12 h (GnRH-R [5]; versus vehicle treated rats): ~ 16 fold
Kd (hTTR [6]): 317 nM
SPR response with hTTR on sensor chip, 8+holo-RBP (hTTR [7]; 8 4 μM and holo-RBP 0.2 μM pre-incubated): 74 ± 1 μRiU
SPR response with hTTR on sensor chip, analyte alone (hTTR [7]; 8 4 μM, holo-RBP 0.2 μM): 34 ± 0.1 μRiU
interaction with hTTR with increasing concentrations of GnRH-R (hTTR [8]): dose-dependent decrease
Compound: Cc1n[nH]c(C)c1CCCOc1cc(OCCCc2cn(CCOCCOCCOCCC(=O)NCCCC[C@@H](NC(=O)[C@H](Cc3ccc(O)cc3)NC(=O)[C@H](CO)NC(=O)[C@H](Cc3c[nH]c4ccccc34)NC(=O)[C@H](Cc3c[nH]cn3)NC(=O)[C@@H]3CCC(=O)N3)C(=O)N[C@@H](CC(C)C)C(=O)N[C@@H](CCCNC(=N)N)C(=O)N3CCC[C@H]3C(=O)NCC(N)=O)nn2)cc(C(=O)O)c1 [Compound 8]
time present in circulation ([3]; i.v. 3.3 μmole/kg): at least 12 h
